Columns and labels:
[1] = stored in a sealed container, not in liquid, at 4° C., tested frequently
Description: Glassy carbon electrode was coated with hydrophobin by placing the electrode in a solution of hydrophobin (100 μg/ml) and incubating for 15 minutes, after which the electrode was thoroughly rinsed with water.
The electrode, modified and functionalized with the enzyme, was placed in a three electrode system, including an Ag/AgCl reference electrode and a Pt counter electrode, using phosphate buffer pH 7 (25 mM).
The modified electrode was stored in a sealed container, not in liquid, at 4° C., and tested frequently for activity and response to glucose.

[2] = Different enzymes immobilized via SC3 hydrophobin on TEFLON, spectrophotometry at 412 and 435 nm; assay type: biochemical; conditions: SC3-coated TEFLON
Description: Oxido-reductases (glucose oxidase, peroxidase laccase), hydrolases (lipase, esterase) and a protease (tryspin) were immobilized via the SC3 hydrophobin on TEFLON™. The surface was first coated with SC3 hydrophobin by immersion in the protein aqueous solution (0.3 mg/mL) during approximately 30 minutes. The obtained modified surface was then immersed in an aqueous enzyme solution during approximately 30 minutes. After each step, the TEFLON™ surface was rinsed with an adequate buffer solution. Activity of the immobilized enzymes was followed by spectrophotometry at 412 and 435 nm after immersion of the functionalized surface in the corresponding substrate solution. The optical density of the solution increases after the immersion of the functionalized surface and stays constant after its removal. […] The functionalized TEFLON® was stored at 4° C. in an Eppendorf tube containing a buffer solution.
Enzymes used: glucose oxidase from Aspergillus niger (SIGMA; 210 U/mg of solid, final concentration 1.0 mg/mL), horseradish peroxidase (SIGMA; 1520 U/mg of solid, final concentration 0.14 mg/mL), laccase from Trametes sp. (Biocatalysts, Wales; final concentration 2.1 mg/mL), lipase from Candida cylindracea (Biocatalysts, Wales; final concentration 0.25 mg/mL), porcine liver esterase (SIGMA; 41 U/mg of solid, final concentration 2.4 mg/mL), bovine pancreas trypsin (SIGMA; 8,750 U/mg of solid). […]

[3] = Circular dichroism of enzymes on binding to bare or hydrophobin-coated colloidal TEFLON; assay type: physicochemical; conditions: bare colloidal TEFLON

glucose oxidase
period tested over which the electrode maintained its activity [1]: 67 days | state of immobilized enzymes (denaturation, desorption) [2]: not denatured and are not desorbed from the surface | function after storage ([2]; 4° C. in buffer solution): still functional after several weeks | structural change in CD-spectra upon binding [3]: underwent structural changes

— patent publication US20050238685A1, “Method of binding a compound to a surface” (priority 2002, published 2005)
